{
  "sequences": {"note": "Amino acid sequences for entries named in this document (tags omitted).", "UniProt P30989, whole entry": "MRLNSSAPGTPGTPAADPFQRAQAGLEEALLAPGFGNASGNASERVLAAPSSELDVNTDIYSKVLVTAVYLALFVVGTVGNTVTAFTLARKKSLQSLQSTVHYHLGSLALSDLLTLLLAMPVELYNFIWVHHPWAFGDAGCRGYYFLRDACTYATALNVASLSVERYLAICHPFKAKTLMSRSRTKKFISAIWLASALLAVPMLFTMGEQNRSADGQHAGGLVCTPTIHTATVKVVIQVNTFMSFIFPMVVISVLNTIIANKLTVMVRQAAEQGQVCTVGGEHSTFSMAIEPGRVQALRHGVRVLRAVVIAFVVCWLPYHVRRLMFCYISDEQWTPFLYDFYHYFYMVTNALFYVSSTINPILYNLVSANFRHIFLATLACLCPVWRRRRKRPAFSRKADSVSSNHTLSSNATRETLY"},
  "source": "paper PMC9414616",
  "origin": "cited, not measured here",
  "target": "NTSR1 (UniProt P30989)",
  "data": [
    {"substance": "neurotensin (from UniProt P30990)", "values": [
      {"measurement": "Kd", "result": 0.5, "unit": "nM"}
    ]}
  ]
}
